US20020164716A1 (GENETICS INSTITUTE, published 2002)

Legend:
[1] = molecular target: T1, MBP fusion protein containing 1TU (Homo sapiens (Human), UniProt Q8TEL6 488-797, limits assumed); assay: pull-down on glutathione beads, Western blot with anti-MBP antibody
T1 construct: Purified, bacterially expressed; also called MBP-1TU
T1 sequence: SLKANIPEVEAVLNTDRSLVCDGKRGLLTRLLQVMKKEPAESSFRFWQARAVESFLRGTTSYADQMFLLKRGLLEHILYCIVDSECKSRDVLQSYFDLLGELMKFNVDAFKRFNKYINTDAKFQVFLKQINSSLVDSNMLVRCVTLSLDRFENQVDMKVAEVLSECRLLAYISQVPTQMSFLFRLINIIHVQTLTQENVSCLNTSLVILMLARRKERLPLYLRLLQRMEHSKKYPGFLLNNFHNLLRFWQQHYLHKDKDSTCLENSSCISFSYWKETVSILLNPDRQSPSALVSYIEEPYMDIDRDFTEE
Experimental: (§1) The reaction ws performed at 4° C. for 2 hours and centrifuged to remove unbound fraction (Unbound). The beads were then washed with 500 μl binding buffer four times and resuspended into SDS-sample buffer (Bound).

[2] = molecular target: T2, MBP fusion protein containing 27TU (Homo sapiens (Human), UniProt Q8WXG6, in part); assay: as above
T2 construct: Purified, bacterially expressed; also called MBP-27TU
Experimental: as §1

- binding result [1]: no binding (tested: 3 µg)
- binding result [2]: no binding (tested: 3 µg)
B1: GST protein alone (other, UniProt P08515 1-218, looked up)
chain: MSPILGYWKIKGLVQPTRLLLEYLEEKYEEHLYERDEGDKWRNKKFELGLEFPNLPYYIDGDVKLTQSMAIIRYIADKHNMLGGCPKERAEISMLEGAVLDIRYGVSRIAYSKDFETLKVDFLSKLPEMLKMFEDRLCHKTYLNGDHVTHPDFMLYDALDVVLYMDPMCLDAFPKLVCFKKRIEAIPQIDKYLKSSKYIAWPLQGWQATFGGGDHPPK
notes: Control on glutathione beads; also called glutathione-S-transferase
